Test results reported in patent US5550165A, “Pharmaceutical compositions for the treatment of hereditary tyosinemia type I” (Zeneca Limited, priority 1991, dated 1996).

What was measured:
[1] = test system: 4-hydroxyphenylpyruvate dioxygenase (HPPD), rat or human liver cytosol; assay: Release of 14CO2 from 4-hydroxyphenyl(1-14C)pyruvate, liver cytosol as enzyme source; type: biochemical; conditions: at concentrations of 100 nM or less; Compound or pharmaceutically acceptable salt
Text: Alternatively, an assay based on that described by Lindstedt and co-workers (Methods in Enzymology, 1987, 142, 139-142 and 143-148) and involves monitoring the effects of a test substance on the release of ^14 CO2 from 4-hydroxyphenyl(1-^14 C)pyruvate using rat or human liver cytosol as the enzyme source.

[2] = test system: 4-hydroxyphenylpyruvate dioxygenase (HPPD), rat liver cytosol; assay: Oxygen consumption of rat liver enzyme with 4-hydroxyphenylpyruvate (oxygen electrode); type: biochemical; conditions: at concentrations of 100 nM or less; Compound or pharmaceutically acceptable salt
Method: One such procedure involves monitoring the oxygen consumption of the rat liver enzyme in the presence of its substrate, 4-hydroxyphenylpyruvate. A typical assay according to this procedure uses an oxygen electrode with 0.2M sodium phosphate buffer at pH 7.2 (3.8 mL) in the reaction vessel at 37° C. Ascorbate (about 7 μM final concentration) and rat liver cytosol (105,000×g supernatant-about 0.2 mL, equivalent to 5 mg of protein) are then added. After equilibration to 37° C. for 3-5 minutes, the enzymatic reaction is started by the addition of the substrate, 4-hydroxyphenylpyruvate (about 200 μM final concentration). A test substance may be evaluated in this assay either by incubation with the enzyme for about 5 minutes prior to starting the reaction with substrate or by injecting the test active ingredient into the reaction vessel together with the substrate.

O=C1CCCC(=O)C1C(=O)c1ccc(C(F)(F)F)cc1[N+](=O)[O-] [the Compound, 2-(2-nitro-4-trifluoromethylbenzoyl)-1,3-cyclohexanedione]
reduction in release of 14CO2 [1]: > 30%
inhibition of oxygen uptake [2]: > 30%
